Assay results as given in PubChem BioAssay AID504441 (Broad Institute, 2011).
The list shows a part of the results, in another mix than the full data. Calls of active or inactive are those of the source. Cut-off read from the data, not from the text of the source: active = inhibition above about 50%; inactive = the rest.

Each compound was assayed against Dual specificity tyrosine-phosphorylation-regulated kinase 1A (Rattus norvegicus) (UniProt Q63470) (assay: inhibition of Dyrk1A kinase activity – biochemical, single point, plate reader, primary screen (AID 504441;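 note: plate controls were vehicle with enzyme for no effect and no enzyme for full effect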)). Details: ADP-Glo luminescence, NFATc1 peptide, at 12.5 µM, hits give high values.

SMILES | inhibition
CC(C)(C)C(=O)NC(Sc1ccccc1)C(Cl)(Cl)Cl (configuration not stated) | inactive: -1.04%
O=P1(Nc2nc3ccc(Cl)cc3s2)COc2ccccc2O1 (configuration not stated) | inactive: 27.6%
CCOc1ccc(C2=NCC(CBr)S2)cc1 (configuration not stated) | inactive: -1.54%
CC(=O)Nc1ccc([As](=O)(O)O)c(O)c1 | inactive: -2.3%
CC(=O)Nc1ccc(Oc2c([N+](=O)[O-])cc([N+](=O)[O-])cc2[N+](=O)[O-])cc1 | inactive: 0.9%
Cc1ccccc1CN(C)C(=O)COC(=O)C(O)(c1ccccc1)c1ccccc1 | inactive: -0.717%
C[C@@H]1C=CCP(=O)(Oc2ccccc2)O1 (some centres not stated) | inactive: 6.7%
C[C@H]1OP(=O)(Oc2ccccc2)C[C@@H]2O[C@@H]21 (some centres not stated) | inactive: -6.13%
CC(=O)c1ccc(N2CC2c2ccncc2)cc1 (configuration not stated) | inactive: -2.38%
COC(=O)C1(C)COP(=O)(NCc2ccccc2)OC1 (configuration not stated) | inactive: 4.45%
O=[As](O)(c1cccc(O)c1)c1cccc(O)c1 | inactive: 4.54%
Cc1cccc(OCC(=O)OC2CN3CCC2CC3)c1 (configuration not stated) | inactive: 3.45%
O=C(OC1CN2CCC1CC2)c1ccc(Cl)cc1 (configuration not stated) | inactive: -3.35%
COc1cc(C(=O)NCC2(N3CCOCC3)CCCCC2)cc(Cl)c1OC(C)C | inactive: 4.52%
O=[As](O)(O)c1cccnc1 | inactive: -4.34%
CS(=O)(=O)c1ccc(Cl)c(NC(=O)COC(=O)C(O)(c2ccccc2)c2ccccc2)c1 | inactive: 1.86%
COc1cc(C2NCCC3(OCCO3)C2(C)C)cc(OC)c1OC (configuration not stated) | inactive: 7.32%
CCOP(=O)(Nc1cccc2ccccc12)OCC | inactive: 1.5%
Nc1cccc2c([As](=O)(O)O)cccc12 | inactive: -1.81%
Cc1ccc(NCCc2c([N+](=O)[O-])cc([N+](=O)[O-])cc2[N+](=O)[O-])cc1 | inactive: 0.683%
CCCOP(=S)(Nc1nc(N)cc(=O)[nH]1)OCCC | inactive: -1.36%
O=C(O)COc1ccc([As](=O)(O)O)cc1[N+](=O)[O-] | inactive: 8.02%

SMILES | inhibition
Nc1ccccc1[As](=O)(O)c1ccccc1 | inactive: -1.32%
CCOP1(=S)c2c(C)nn(CCC#N)c2N=C(c2ccccc2F)N1C (configuration not stated) | inactive: 2.24%
O=P(Nc1nccs1)(c1ccccc1)c1nc2ccccc2s1 (configuration not stated) | inactive: -1.56%
O=P(Nc1nccs1)(Oc1ccccc1)Oc1ccccc1 | inactive: -1.13%
CS(=O)(=O)c1cc([N+](=O)[O-])c2no[n+]([O-])c2c1 | inactive: -4.74%
N#CCCN(C(=O)COC(=O)C(O)(c1ccccc1)c1ccccc1)c1ccc(F)cc1 | inactive: 8.71%
CCOP1(=S)c2c(C)nn(CCC#N)c2N=C(c2ccc(F)cc2)N1C (configuration not stated) | inactive: -2.92%
CN(C(=O)Cc1ccccc1)[C@@H]1CC[C@]2(CCCO2)C[C@H]1N1CCCC1 | inactive: -3.85%
CN(C)C(=O)c1cc([N+](=O)[O-])cc2c1-c1c(cc([N+](=O)[O-])cc1[N+](=O)[O-])C2=O | inactive: 2.68%
O=[N+]([O-])c1ccc2c(c1)nnn2O | inactive: 4.7%
CN(C(=O)Cc1ccc(Cl)c(Cl)c1)[C@H]1CC[C@@]2(CCCO2)C[C@@H]1N1CCCC1 | inactive: 3.47%
NC(=O)Nc1ccc([As](=O)(O)O)cc1 | inactive: 4.55%
O=C(/C=C/c1ccccc1)OC1CN2CCC1CC2 (configuration not stated) | inactive: -3.59%
CCCC1OP(=O)(Nc2ccccc2)OCC1CC (configuration not stated) | inactive: 0.421%
Cc1nn(-c2ccccc2)c2c1P(=O)(N1CCOCC1)N(C)C(c1ccccc1)=N2 (configuration not stated) | inactive: -3.12%
Cc1ccc(C(=O)OC2CN3CCC2CC3)cc1 (configuration not stated) | inactive: -1.37%
CC1CCC(C(C)C)C(OP(=O)(Nc2ccccn2)c2ccccc2)C1 (configuration not stated) | inactive: -11.8%
Nc1cccc([As](=O)(O)c2ccccc2)c1 | inactive: 3.59%
NS(=O)(=O)c1cccc(NC(=O)COC(=O)C(O)(c2ccccc2)c2ccccc2)c1 | inactive: 3.38%
O=P1(Nc2ccc(Br)cn2)COc2ccccc2OC1 | inactive: -6.61%
O=[As](O)(c1cccs1)c1cccs1 | inactive: 0.443%
Cc1ccc(OCC(=O)OC2CN3CCC2CC3)cc1 (configuration not stated) | inactive: -5.38%

SMILES | inhibition
O=P1(Nc2ncccn2)COc2ccccc2OC1 | inactive: -0.16%
Clc1n[nH]nc1-c1nn[nH][15n]1 | inactive: -0.666%
CC(C)(C)C(=O)NC(Sc1ncccn1)C(Cl)(Cl)Cl (configuration not stated) | inactive: -5.62%
CCC1=CC2Cc3nc4ccc(Cl)cc4c(N)c3C(C1)C2 (configuration not stated) | inactive: 5.64%
O=P1(Nc2ccccn2)COc2ccccc2OC1 | inactive: -4.88%
CCOP(=O)(Nc1ccc(C)cn1)OCC | inactive: -3.44%
CN(C(=O)Cc1ccc(Cl)c(Cl)c1)[C@@H]1CCCC[C@H]1N1CCCC1 | inactive: -5.9%
CC(C)/C=N\N=C(\N)N[N+](=O)[O-] | inactive: 6.93%
CC1(CBr)Cn2c(nc3ccccc3c2=O)S1 (configuration not stated) | inactive: 17.9%
COc1ccccc1CNC(=O)COC(=O)C(O)(c1ccccc1)c1ccccc1 | inactive: -1.95%
O=C(COc1ccccc1)OC1CN2CCC1CC2 (configuration not stated) | inactive: -3.81%
O=C(Nc1ccncc1[N+](=O)[O-])c1ccc([N+](=O)[O-])cc1[N+](=O)[O-] | inactive: 12.7%
COP1(=S)c2c(C)nn(CCC#N)c2N=C(c2ccc(F)cc2)N1C (configuration not stated) | inactive: -5.27%
CCC(C)N(CC(C)C)C(=S)SC(NC(C)=O)C(Cl)(Cl)Cl (configuration not stated) | inactive: -2.69%
O=C(OC1CN2CCC1CC2)c1cccc([N+](=O)[O-])c1 (configuration not stated) | inactive: 4.73%
CCOC(=O)c1ccc(NC(=O)C(C)(CCl)SC)cc1 (configuration not stated) | inactive: 1.36%
CCCCOc1ccc(C(=O)NCC2(N3CCCCC3)CCCCC2)cc1OC | inactive: -1.5%
Cc1cc(SC(NC(=O)c2ccccc2)C(Cl)(Cl)Cl)nc(C(C)C)n1 (configuration not stated) | inactive: 0.304%
CCOC(=O)Nc1ccc([As](=O)(O)O)c(O)c1 | inactive: -2.37%
CC1CCNP(=O)(N(CCCl)CCCl)O1 (configuration not stated) | inactive: 4.65%
Cc1cc(SC(NC=O)C(Cl)(Cl)Cl)ncn1 (configuration not stated) | inactive: -0.543%
O=P(Nc1ccccn1)(c1cccc2ccccc12)c1cccc2ccccc12 | inactive: -0.535%

SMILES | inhibition
O=[N+]([O-])c1ccc(Nc2ccc(Oc3ccc([N+](=O)[O-])cc3[N+](=O)[O-])cc2)c([N+](=O)[O-])c1 | inactive: -1.03%
CCOC(=O)Nc1cccc([As](=O)(O)O)c1 | inactive: 4.33%
Cc1ccc(OP(=O)(Nc2ccc([N+](=O)[O-])cn2)Oc2ccc(C)cc2)cc1 | inactive: -1.96%
Cc1ccc2nc3c(c(C)c2c1)CC(C(Cl)Cl)S3 (configuration not stated) | inactive: 5.15%
O=[As](O)(c1ccc(O)cc1)c1ccccc1O | inactive: -3.51%
C[As](=O)(O)c1cccc(C(=O)O)c1 | inactive: -0.511%
O=C(OC1CN2CCC1CC2)c1cccc2[nH]cnc12 (configuration not stated) | inactive: 5.5%
CCN(CC)C(=S)SC(NC=O)C(Cl)(Cl)Cl (configuration not stated) | inactive: -9.7%
CC(C)NC(=O)NP(=O)(Oc1ccccc1)Oc1ccccc1 | inactive: -0.674%
O=[N+]([O-])c1cc([N+](=O)[O-])c(-c2ccn[nH]2)s1 | inactive: 3.29%
ClCCSc1nnc(-c2cccnc2)o1 | inactive: -1.3%
CC(C)c1ccc(OP(=O)(Nc2ccccn2)Oc2ccccc2F)cc1 (configuration not stated) | inactive: -6.67%
COC(=O)C1(C)COP(=O)(N2CCCCCC2)OC1 (configuration not stated) | inactive: -4.6%
O=P1(N(CCCl)CCCl)Nc2ccccc2N1 | inactive: -0.567%
COc1ccc2nc(NP(=O)(c3ccccc3)c3ccccc3)sc2c1 | inactive: 3.21%
COc1cc(I)ccc1[As](=O)(O)O | inactive: -5.46%
Cc1c2c(nc3ccccc13)SC(C(Cl)Cl)C2 (configuration not stated) | inactive: 45.1%
O=C(OC1CN2CCC1CC2)C12CC3CC(CC(C3)C1)C2 (configuration not stated) | inactive: -3.25%
Cc1cc(=O)[nH]c(N[N+](=O)[O-])n1 | inactive: -5.43%
O=[N+]([O-])c1cc(Oc2ccc([N+](=O)[O-])cc2C(F)(F)F)cc([N+](=O)[O-])c1 | inactive: -4.23%
COc1ccc(N/C(=N/P(=O)(N2CCOCC2)N2CCOCC2)N2CCOCC2)cc1 | inactive: 1.64%
